# Measured values from PubChem BioAssay AID743445 (Broad Institute, 2014).
# The chains behind the UniProt entries cited, without tags or fusion partners.
# UniProt O96028, whole entry: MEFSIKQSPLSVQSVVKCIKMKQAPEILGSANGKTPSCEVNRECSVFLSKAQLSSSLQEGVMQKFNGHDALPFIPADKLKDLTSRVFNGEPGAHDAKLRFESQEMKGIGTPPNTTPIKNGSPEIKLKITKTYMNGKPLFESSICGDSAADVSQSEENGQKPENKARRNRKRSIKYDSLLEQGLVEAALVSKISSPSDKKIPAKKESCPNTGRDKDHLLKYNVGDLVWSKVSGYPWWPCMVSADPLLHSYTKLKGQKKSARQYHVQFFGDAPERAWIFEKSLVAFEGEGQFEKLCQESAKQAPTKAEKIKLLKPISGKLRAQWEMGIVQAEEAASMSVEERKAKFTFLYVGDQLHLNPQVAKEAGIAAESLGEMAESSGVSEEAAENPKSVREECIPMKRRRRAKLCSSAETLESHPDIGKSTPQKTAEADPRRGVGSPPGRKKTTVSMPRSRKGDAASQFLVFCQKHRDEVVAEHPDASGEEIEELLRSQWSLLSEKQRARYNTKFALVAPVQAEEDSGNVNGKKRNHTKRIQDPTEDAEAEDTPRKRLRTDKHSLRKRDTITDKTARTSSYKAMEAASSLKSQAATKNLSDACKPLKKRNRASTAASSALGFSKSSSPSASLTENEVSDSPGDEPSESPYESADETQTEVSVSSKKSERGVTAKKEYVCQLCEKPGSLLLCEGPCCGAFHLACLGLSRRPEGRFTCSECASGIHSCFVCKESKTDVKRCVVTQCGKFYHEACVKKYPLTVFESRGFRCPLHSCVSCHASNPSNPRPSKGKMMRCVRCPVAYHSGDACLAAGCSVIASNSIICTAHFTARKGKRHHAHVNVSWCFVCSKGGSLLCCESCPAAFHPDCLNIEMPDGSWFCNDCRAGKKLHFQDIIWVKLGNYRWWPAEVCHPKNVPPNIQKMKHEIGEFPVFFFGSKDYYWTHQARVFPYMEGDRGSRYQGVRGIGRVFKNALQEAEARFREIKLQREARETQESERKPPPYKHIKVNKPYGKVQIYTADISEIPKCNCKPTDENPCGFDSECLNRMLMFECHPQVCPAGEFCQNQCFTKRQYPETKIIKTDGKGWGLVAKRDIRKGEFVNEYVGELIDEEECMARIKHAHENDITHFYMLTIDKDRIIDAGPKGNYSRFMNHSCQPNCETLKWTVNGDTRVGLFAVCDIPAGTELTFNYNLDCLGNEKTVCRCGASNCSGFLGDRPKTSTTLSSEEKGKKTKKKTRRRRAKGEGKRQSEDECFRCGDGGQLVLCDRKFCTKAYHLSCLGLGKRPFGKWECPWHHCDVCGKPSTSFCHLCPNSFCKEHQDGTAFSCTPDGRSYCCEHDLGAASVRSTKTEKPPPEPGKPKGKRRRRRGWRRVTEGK
# The list shows a part of the results, in another mix than the full data. Activity calls are given as the source filed them. Cut-off read from the data, not from the text of the source: active = inhibition above about 50%; inactive = the rest.
# Target: Histone-lysine N-methyltransferase NSD2 (Homo sapiens) (UniProt O96028)
# Test: NSD2 histone methyltransferase inhibitors, primary screen, biochemical, AlphaScreen, single concentration, set 2 (AID 743445)
# Details: NSD2 peptide methylation, 120 min, at 12.5 µM, hits give high values
row,Structure (SMILES),inhibition
1,COc1cc(C(=O)NCC2(N(C)C)CCCCC2)ccc1OC(F)F,inactive: 0.105%
2,CCOC(=O)N1CCC(Nc2cccc(C)c2)CC1,inactive: 1.01%
3,CCOc1ccc(C)cc1CN(CCCl)CCCl,inactive: 6.71%
4,CCOC(=O)N1CCC(Nc2ccc(F)cc2)CC1,inactive: 0.155%
5,COc1ccc(NC2CCN(CCc3ccccc3)CC2)c(OC)c1,inactive: 31.3%
6,O=C(NCC1(N2CCCCC2)CCCCC1)c1ccc(F)cc1,inactive: -1.26%
7,CCCCOc1ccc(C(=O)NCC2(N3CCOCC3)CCCCC2)cc1,inactive: -0.451%
8,O=P1(N(CCCl)CCCl)SCCCS1,inactive: 7.06%
9,O=C(NCC1(N2CCOCC2)CCCCC1)c1cc2ccccc2o1,inactive: 2.03%
10,Cc1cc(C)cc(N(C(=O)c2ccccc2)C2CCN(C(=O)OC(C)(C)C)CC2)c1,inactive: -2.36%
11,O=C(NCC1(N2CCCCC2)CCCCC1)c1ccc(Cl)nc1,inactive: 0.445%
12,CCOC(=O)N1CCC(Nc2ccc(OC)cc2)CC1,inactive: 5.49%
13,COc1ccc(Cl)cc1C(=O)NCC1(N2CCOCC2)CCCCC1,inactive: -2.25%
14,O=C(OC1CN2CCC1CC2)C1c2ccccc2Oc2ccccc21 (centres undefined),inactive: -0.038%
15,O=C(NCC1(N2CCCCC2)CCCCC1)c1ccc(Cl)s1,inactive: 0.773%
16,N#CC1(Nc2ccccc2)CCN(Cc2ccccc2)CC1,inactive: -0.533%
17,O=C(NCC1(N2CCCCC2)CCCCC1)c1cccs1,inactive: 1.17%
18,O=C(NCC1(N2CCCCC2)CCCCC1)c1ccc(=O)[nH]c1,inactive: -0.98%
19,COc1ccc(C(=O)NCC2(N3CCCCC3)CCCCC2)c(OC)c1OC,inactive: -1.8%
20,CC(C)(C)OC(=O)N1CCC(N(C(=O)c2ccccc2)c2ccc(F)cc2)CC1,inactive: -3.89%
21,COc1ccc(C(=O)NCC2(N3CCCCC3)CCCCC2)cc1,inactive: 20.9%
22,Cc1cccc(NC2(C#N)CCN(Cc3ccccc3)CC2)c1,inactive: -2.85%
23,CSc1ccccc1C(=O)NCC1(N2CCCCC2)CCCCC1,inactive: 4.29%
24,O=C(NCC1(N2CCCCC2)CCCCC1)c1cncc(Br)c1,inactive: 0.072%
25,CN1CCC(Nc2cccc(F)c2)CC1,inactive: 12.6%
26,CCCOc1ccc(C(=O)NCC2(N(C)C)CCCCC2)cc1OC,inactive: -0.342%
27,Cc1ccc(C(=O)NCC2(N(C)C)CCCCC2)o1,inactive: -0.239%
28,CN(C)c1cccc(C(=O)NCC2(N3CCCCC3)CCCCC2)c1,inactive: 0.423%
29,COc1ccc(CN(CCCl)CCCl)cc1Cl,inactive: 26.1%
